US9750727B2 (priority 2010, dated 2017)

System: M. bovis bovinus 8
Format: in vivo
Conditions: mice, 42 days of treatment

With CO[C@H]1/C=C/O[C@@]2(C)Oc3c(C)c(O)c4c(O)c(c(/C=N/N5CCN(C)CC5)c(O)c4c3C2=O)NC(=O)/C(C)=C\C=C\[C@H](C)[C@H](O)[C@@H](C)[C@@H](O)[C@@H](C)[C@H](OC(C)=O)[C@@H]1C [Rifampicin, rifampicin] the “Scored sum of area: Dense lymphocytic infiltrate” value was 2.37.
